Experimental findings from PubChem BioAssay AID720513 (Broad Institute, 2013) are described below.

For this assay, the system named is U2OS PGC1a acetylation AlphaLISA, overnight. The assay can be described thus: activators raising PGC1a acetylation in cells, dose response, cell-based, cherry-picked samples, set 6 (AID 720513).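 Also: cells made to overexpress flag tagged PGC1a plus GCN5 acetyltransferase by viral infection.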

Records with an inconclusive call do not appear.

For `O=c1[nH]c2ccccc2n1C1CCN(C(c2ccccc2OC(F)(F)F)c2nnnn2C2CCCC2)CC1` (stereo unspecified), the AC40 was 2670 nM.
